# Structures can show the parent of a compound that is named as a salt.
# Amino acid sequences for entries named in this document (tags omitted). Residues count along the entry.
# UniProt P00533, 25-1210 T790M/L858R limits assumed: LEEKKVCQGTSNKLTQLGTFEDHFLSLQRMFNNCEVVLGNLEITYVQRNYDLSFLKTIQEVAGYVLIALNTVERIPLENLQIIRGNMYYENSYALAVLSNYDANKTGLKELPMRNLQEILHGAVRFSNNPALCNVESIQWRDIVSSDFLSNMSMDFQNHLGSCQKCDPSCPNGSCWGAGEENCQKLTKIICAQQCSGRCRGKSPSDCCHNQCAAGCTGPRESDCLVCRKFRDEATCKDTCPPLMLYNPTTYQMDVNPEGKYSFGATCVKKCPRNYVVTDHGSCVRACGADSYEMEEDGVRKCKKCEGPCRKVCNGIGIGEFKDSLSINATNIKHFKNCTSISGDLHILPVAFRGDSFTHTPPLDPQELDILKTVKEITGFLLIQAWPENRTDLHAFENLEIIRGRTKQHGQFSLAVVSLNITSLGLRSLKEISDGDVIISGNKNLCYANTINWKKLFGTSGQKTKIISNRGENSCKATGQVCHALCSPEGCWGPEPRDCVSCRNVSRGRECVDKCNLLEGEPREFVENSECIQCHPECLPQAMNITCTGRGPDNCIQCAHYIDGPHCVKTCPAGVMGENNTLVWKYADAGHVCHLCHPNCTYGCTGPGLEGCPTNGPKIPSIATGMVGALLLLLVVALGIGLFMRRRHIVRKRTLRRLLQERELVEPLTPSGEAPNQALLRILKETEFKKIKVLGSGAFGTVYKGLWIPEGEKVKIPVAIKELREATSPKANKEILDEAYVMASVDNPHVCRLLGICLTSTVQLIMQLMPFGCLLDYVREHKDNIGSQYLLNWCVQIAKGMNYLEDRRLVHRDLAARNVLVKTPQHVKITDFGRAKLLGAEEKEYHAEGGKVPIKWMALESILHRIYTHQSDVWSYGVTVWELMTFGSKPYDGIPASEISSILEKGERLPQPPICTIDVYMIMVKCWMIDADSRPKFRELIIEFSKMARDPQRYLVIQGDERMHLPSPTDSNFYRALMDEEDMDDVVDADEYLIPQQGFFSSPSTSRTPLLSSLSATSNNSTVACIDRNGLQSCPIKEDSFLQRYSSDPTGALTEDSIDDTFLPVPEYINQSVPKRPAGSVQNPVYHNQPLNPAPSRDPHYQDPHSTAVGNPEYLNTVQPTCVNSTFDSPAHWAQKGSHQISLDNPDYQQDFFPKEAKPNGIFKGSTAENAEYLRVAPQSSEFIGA
# Target: EGFR T790M L858R (Homo sapiens, UniProt P00533, L858R/T790M)
# Assay: biochemical
# Details: EGFR(T790M/L858R) Ki (μM), 5 μM ATP, 30 min, room temperature; apparent Ki (Morrison) converted by Cheng-Prusoff, Km of ATP 1.3 μM
row,SMILES,Ki
1,"CC(C)n1cnc2cnc(Nc3ccnc(N4CC5CN(S(C)(=O)=O)CC5C4)n3)cc21 (stereo not shown) [Example 69, 1-isopropyl-N-(2-(5-(methylsulfonyl)-hexahydropyrrolo[3,4-c]pyrrol-2(1H)-yl)pyrimidin-4-yl)-1H-imidazo[4,5-c]pyridin-6-amine]",0.384 µM
2,CCC(C)n1cc(C(=O)NC2COCCOC2)c2cnc(Nc3ccnc(-c4cnn(S(=O)(=O)C5CC5)c4)n3)cc21 (stereo not shown) [Example 700],0.0017 µM
3,"COC1CCN(c2nccc(Nc3cc4c(cn3)c(-c3cn[nH]c3)cn4C(C)C)n2)CC1 [Example 401, 1-isopropyl-N-(2-(4-methoxypiperidin-1-yl)pyrimidin-4-yl)-3-(1H-pyrazol-4-yl)-1H-pyrrolo[3,2-c]pyridin-6-amine]",0.00195 µM
4,"CO[C@@H]1CCN(c2nccc(Nc3cc4c(cn3)nc(CO)n4C(C)C)n2)C[C@@H]1Cl (racemic) [Example 634, (6-(2-((±)-(cis)-3-Chloro-4-methoxypiperidin-1-yl)pyrimidin-4-ylamino)-1-isopropyl-1H-imidazo[4,5-c]pyridin-2-yl)methanol]",0.00828 µM
5,Cc1nc2cnc(Nc3ccnc(N4CCOC[C@@H]4C)n3)cc2n1C(C)C [Example 605],0.0699 µM
6,"CC(n1cc(C(=O)NC2CCOCC2)c2cnc(Nc3ccnc(N4CC[C@@H](O)[C@@H](F)C4)n3)cc21)C(F)(F)F (single isomer, unassigned) [Example 639]",0.00227 µM
7,"CNS(=O)(=O)CCNc1nccc(Nc2cc3c(cn2)ncn3C(C)C)n1 [Example 112, 2-((4-((1-isopropyl-1H-imidazo[4,5-c]pyridin-6-yl)amino)pyrimidin-2-yl)amino)-N-methylethanesulfonamide]",1.35 µM
8,CC(C)n1cnc2cnc(Nc3ccnc(N4CC5CC4C5)n3)cc21 [Example 176],0.279 µM
9,"CC(C)n1c(C(C)(C)O)nc2cnc(Nc3ccnc(-c4cnn(S(=O)(=O)C5CC5)c4)n3)cc21 [Example 563, 2-{6-[2-(1-Cyclopropanesulfonyl-1H-pyrazol-4-yl)pyrimidin-4-ylamino]-1-isopropyl-1H-imidazo[4,5-c]pyridin-2-yl} propan-2-ol]",0.0125 µM
10,"Cc1nc2cnc(Nc3ccnc(N4CCC(S(=O)(=O)C(C)C)CC4)n3)cc2n1C(C)C [Example 553, (1-Isopropyl-2-methyl-1H-imidazo[4,5-c]pyridin-6-yl)-{2-[4-(propane-2-sulfonyl)piperidin-1-yl]pyrimidin-4-yl}amine]",0.357 µM
11,"Cc1nc2cnc(Nc3ccnc(-c4cn(C)nc4N)n3)cc2n1C(C)C [Example 363, N-(2-(3-Amino-1-methyl-1H-pyrazol-4-yl)pyrimidin-4-yl)-1-isopropyl-2-methyl-1H-imidazo[4,5-c]pyridin-6-amine]",0.0487 µM
12,CNC(=O)C1C2CN(c3nccc(Nc4cc5c(cn4)ncn5C(C)C)n3)CC21 (stereo not shown) [Example 196],1.03 µM
13,"Cc1cc(-c2nccc(Nc3cc4c(cn3)nc(C)n4C(C)C)n2)sn1 [Example 360, 1-Isopropyl-2-methyl-N-(2-(3-methylisothiazol-5-yl)pyrimidin-4-yl)-1H-imidazo[4,5-c]pyridin-6-amine]",0.089 µM
14,"CCC(C)n1cc(C(=O)NC2CCOCC2)c2cnc(Nc3ccnc(N4CC[C@@H](O)[C@@H](F)C4)n3)cc21 (single isomer, unassigned) [Example 324]",0.00101 µM
15,"CC(C)n1c(C(F)F)nc2cnc(Nc3ccnc(-c4cnn(S(=O)(=O)C5CC5)c4)n3)cc21 [Example 263, N-(2-(1-(Cyclopropylsulfonyl)-1H-pyrazol-4-yl)pyrimidin-4-yl)-2-(difluoromethyl)-1-isopropyl-1H-imidazo[4,5-c]pyridin-6-amine]",0.0157 µM
16,"CC(C)n1c(CO)nc2cnc(Nc3ccnc(N4CC[C@H](O)[C@](C)(F)C4)n3)cc21 (racemic) [Example 645, (3RS,4SR)-3-Fluoro-1-(4-((2-(hydroxymethyl)-1-isopropyl-1H-imidazo[4,5-c]pyridin-6-yl)amino)pyrimidin-2-yl)-3-methylpiperidin-4-ol]",0.0178 µM

# The remaining compounds from weak to strong by Ki, led by results:
row,Ki,SMILES
1,1.35 µM,CC(C)n1cnc2cnc(Nc3ccnc(N4CCC(CN5CCCC5=O)CC4)n3)cc21 [Example 177]
2,1.12 µM,"CC(=O)N1CCN(c2nccc(Nc3cc4c(cn3)ncn4C(C)C)n2)CC1 [Example 142, 1-{4-[4-(l-Isopropyl-1H-imidazo[4,5-c]pyridin-6-ylamino)pyrimidin-2-yl]piperazin-1-yl}ethanone formate salt]"
3,1.05 µM,CC(=O)N1CCC(Nc2nccc(Nc3cc4c(cn3)ncn4C(C)C)n2)CC1 [Example 178]
4,1.03 µM,"COC(=O)C(C)(C)CNc1nccc(Nc2cc3c(cn2)nc(CO)n3C(C)C)n1 [Example 560, 3-[4-(2-Hydroxymethyl-1-isopropyl-1H-imidazo[4,5-c]pyridin-6-ylamino)pyrimidin-2-ylamino]-2,2-dimethylpropionic acid methyl ester]"
5,0.989 µM,CC(C)n1cnc2cnc(Nc3ccnc(N4CC5CC5(N)C4)n3)cc21 (stereo not shown) [Example 235]
6,0.468 µM,"CCOc1ncc(-c2nccc(Nc3cc4c(cn3)ncn4C(C)C)n2)cn1 [Example 55, N-(2′-Ethoxy-[2,5′-bipyrimidin]-4-yl)-1-isopropyl-1H-imidazo[4,5-c]pyridin-6-amine]"
7,0.205 µM,CC(C)n1cnc2cnc(Nc3ccnc(NCC4CC4)n3)cc21 [Example 167]
8,0.135 µM,"Cc1nc2cnc(Nc3ccnc(-n4cnc(S(=O)(=O)NC5CC5)c4)n3)cc2n1C(C)C [Example 555, 1-[4-(1-Isopropyl-2-methyl-1H-imidazo[4,5-c]pyridin-6-ylamino)pyrimidin-2-yl]-1H-imidazole-4-sulfonic acid cyclopropylamide]"
9,0.108 µM,"Cc1nc2cnc(Nc3ccnc(N4CCC(S(N)(=O)=O)CC4)n3)cc2n1C(C)C [Example 547, 1-[4-(1-Isopropyl-2-methyl-1H-imidazo[4,5-c]pyridin-6-ylamino)pyrimidin-2-yl]piperidine-4-sulfonic acid amide]"
10,0.107 µM,"COC1CCN(c2nccc(Nc3cc4c(cn3)nc(C)n4C(C)CC(N)=O)n2)CC1 (stereo not shown) [Example 352, 3-(6-((2-(4-Methoxypiperidin-1-yl)pyrimidin-4-yl)amino)-2-methyl-1H-imidazo[4,5-c]pyridin-1-yl)butanamide]"
11,0.101 µM,"CC(C)n1cnc2cnc(Nc3ccnc(N4CCC(n5cncn5)CC4)n3)cc21 [Example 135, (1-Isopropyl-1H-imidazo[4,5-c]pyridin-6-yl)-[2-(4-[1,2,4]triazol-1-ylpiperidin-1-yl)pyrimidin-4-yl]amine]"
12,0.0674 µM,"Cc1cnn(C)c1-c1cn(C(C)C)c2cc(Nc3ccnc(-c4cnn(S(=O)(=O)C5CC5)c4)n3)ncc12 [Example 434, N-(2-(1-(cyclopropylsulfonyl)-1H-pyrazol-4-yl)pyrimidin-4-yl)-3-(1,4-dimethyl-1H-pyrazol-5-yl)-1-isopropyl-1H-pyrrolo[3,2-c]pyridin-6-amine]"
13,0.0454 µM,CC(C)n1c(CO)nc2cnc(Nc3ccnc(OCC(C)(C)S(C)(=O)=O)n3)cc21 [Example 660]
14,0.00347 µM,CCNc1nc2cnc(Nc3ccnc(-c4cnn(S(=O)(=O)C5CC5)c4)n3)cc2n1C(C)C [Example 556]
15,0.0026 µM,"CC(C)(C)n1c(CO)nc2cnc(Nc3ccnc(-c4cnn(S(=O)(=O)C5CC5)c4)n3)cc21 [Example 485, (1-tert-butyl-6-(2-(1-(cyclopropylsulfonyl)-1H-pyrazol-4-yl)pyrimidin-4-ylamino)-1H-imidazo[4,5-c]pyridin-2-yl)methanol]"

# From patent US9890152B2 (Genentech, Inc., priority 2012, dated 2018)
